# Results from patent US20230165792A1, “LIQUID FORMULATION AND PHARMACEUTICAL PRODUCT CONTAINING CILASTATIN” (Denka Company Limited, priority 2020, published 2023).
# Assays:
# [1] = Test 4: Effects of chelating agents (absorbance, HPLC content); settings: 45° C. for four weeks, headspace purged with nitrogen
# [2] = Test 3: Effects of additives (absorbance, HPLC content); format: physicochemical; settings: 45° C. for four weeks, headspace purged with nitrogen
# [3] = Test 2: Effects of antioxidants on cilastatin-containing liquid formulation (absorbance, HPLC content); format: physicochemical; settings: 45° C. for 18 days, headspace purged with nitrogen
# [4] = heated sample: sealed glass vial, 80° C. for 4 hours; HPLC
# Experimental: Then, the glass vial was sealed and heated at 80° C. for 4 hours (to obtain a nitrogen-purged, heated sample). The aqueous solution before heating and the two samples prepared above were measured for absorbance, which served as an index for the degree of coloration, and also analyzed by HPLC to confirm the content of cilastatin.
# The analysis conditions are detailed below.
# Absorbance Measurement Conditions:
# Equipment: Hitachi U-3900
# Optical path length: 1 cm
# HPLC Analysis Conditions:
# Detector: Ultraviolet absorptiometer (measurement wavelength: 216 nm)
# Column: 1.7 μm octadecylsilylated silica gel column (Acquity BEH C18, produced by Waters), 2.1 mm I.D., 50 mm long
# Column temperature: 40° C.
# Mobile phase: 25 mM phosphate buffer containing 9.5% acetonitrile (pH 4.25)
# Amount of sample injected: 5 μL (prepared to 100 μg/mL)
# Retention time: Cilastatin (about 2.6 min.)
compound,measurement,setting,value
"CC1(C)C[C@@H]1C(=O)N/C(=C\CCCCSC[C@H](N)C(=O)O)C(=O)O [cilastatin sodium, (Z)-7-[[(R)-2-amino-2-carboxyethyl]thio]-2-[[[(S)-2,2-dimethylcyclopropyl]carbonyl]amino]-2-heptenoic acid]",Cilastatin content w/N2-purge,[1],98.36%
same,Cilastatin content w/N2-purge,[2],98.36%
same,Cilastatin content w/N2-purge,[3],98.36%
same,Cilastatin content,[4],98.85%
